# Laboratory results reported in publication doi:10.1101/2025.02.07.636106.
# Chains of the proteins cited; added tags and fusions are not shown.
# UniProt Q9UBB5, whole entry: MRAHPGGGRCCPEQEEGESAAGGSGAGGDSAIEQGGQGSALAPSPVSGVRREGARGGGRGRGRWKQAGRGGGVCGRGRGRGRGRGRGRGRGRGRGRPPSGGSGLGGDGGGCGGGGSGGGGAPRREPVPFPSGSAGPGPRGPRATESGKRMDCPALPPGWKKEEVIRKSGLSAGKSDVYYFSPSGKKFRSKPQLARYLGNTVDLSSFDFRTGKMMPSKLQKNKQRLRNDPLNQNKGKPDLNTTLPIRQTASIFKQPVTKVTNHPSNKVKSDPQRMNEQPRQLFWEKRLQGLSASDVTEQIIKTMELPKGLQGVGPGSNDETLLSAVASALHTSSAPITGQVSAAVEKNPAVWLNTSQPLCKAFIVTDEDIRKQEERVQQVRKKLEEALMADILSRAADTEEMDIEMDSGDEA
# Target: Methyl-CpG-binding domain protein 2 (UniProt Q9UBB5)
# Experiment: cross-link between two proteins; affinity purification or IP with mass spectrometry; cross-linking mass spectrometry
substance,measurement,value
"Histone deacetylase 2, Q92769",listed as a hit,yes
